Source: patent US20250195530A1, “POLQ INHIBITORS” (ASTRAZENECA AB, priority 2022, published 2025)

Chains of the proteins cited; added tags and fusions are not shown. Residues count along the entry.
UniProt O75417, 1780-2590: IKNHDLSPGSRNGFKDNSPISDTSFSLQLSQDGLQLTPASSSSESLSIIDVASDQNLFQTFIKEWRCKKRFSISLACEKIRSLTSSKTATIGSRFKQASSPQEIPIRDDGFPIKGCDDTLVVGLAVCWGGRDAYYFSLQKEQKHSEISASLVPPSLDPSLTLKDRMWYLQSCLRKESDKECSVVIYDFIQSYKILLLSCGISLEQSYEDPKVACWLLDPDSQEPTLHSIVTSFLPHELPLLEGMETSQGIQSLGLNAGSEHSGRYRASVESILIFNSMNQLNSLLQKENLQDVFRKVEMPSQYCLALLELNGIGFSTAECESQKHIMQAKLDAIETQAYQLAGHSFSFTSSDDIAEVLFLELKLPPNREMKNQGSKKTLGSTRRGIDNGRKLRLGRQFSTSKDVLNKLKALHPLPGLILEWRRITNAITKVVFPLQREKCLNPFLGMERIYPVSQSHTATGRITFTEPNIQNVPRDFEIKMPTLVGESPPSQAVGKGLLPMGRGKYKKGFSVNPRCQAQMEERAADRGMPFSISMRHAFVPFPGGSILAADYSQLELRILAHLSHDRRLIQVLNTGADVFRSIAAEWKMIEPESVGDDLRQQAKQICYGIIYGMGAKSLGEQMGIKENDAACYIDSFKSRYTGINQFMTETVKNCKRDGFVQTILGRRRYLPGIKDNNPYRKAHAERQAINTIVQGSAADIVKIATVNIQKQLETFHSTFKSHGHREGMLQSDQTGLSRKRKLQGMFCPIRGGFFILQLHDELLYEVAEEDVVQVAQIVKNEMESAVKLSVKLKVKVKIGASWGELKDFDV

Biological target: isolated polymerase domain (I1780-V2590) of DNA polymerase theta (Polθ) (Homo sapiens (Human), UniProt O75417)

SMILES	pIC50
Cc1ccnc(Cn2c(-c3ccc(O[C@H]4CCC(=O)NC4)cc3Cl)nc3c(OC4(C)CC4)ncnc32)c1 [Example 41, (S)-5-(3-Chloro-4-(6-(1-methylcyclopropoxy)-9-((4-methylpyridin-2-yl)methyl)-9H-purin-8-yl)phenoxy)piperidin-2-one]	8.10
CN(C)[C@@H]1CCN(c2ccc(-c3nc4c(OC5(C)CC5)ncnc4n3Cc3ccccc3)c(Cl)c2)C1 [Example C4, (R)-1-(4-(9-benzyl-6-(1-methylcyclopropoxy)-9H-purin-8-yl)-3-chlorophenyl)-N,N-dimethylpyrrolidin-3-amine]	8.60
CC1(Oc2ncnc3c2nc(-c2ccc(OCCN4CC(O)C4)cc2Cl)n3Cc2ccccc2)CC1 [Example H14, 1-(2-(4-(9-benzyl-6-(1-methylcyclopropoxy)-9H-purin-8-yl)-3-chlorophenoxy)ethyl)azetidin-3-ol]	8.60
COc1ccc(F)cc1Cn1c(-c2cccc(O[C@H]3CC[C@H](C(=O)O)CC3)c2Cl)nc2c(OC3(C)CC3)ncnc21 [Example U69, (1r,4r)-4-(2-chloro-3-(9-(5-fluoro-2-methoxybenzyl)-6-(1-methylcyclopropoxy)-9H-purin-8-yl)phenoxy)cyclohexane-1-carboxylic acid]	8.50
C[C@@H]1CNCCN1CCOc1ccc(-c2nc3c(OC4(C)CC4)ncnc3n2Cc2ccccc2)c(Cl)c1 [Example R11, (R)-9-benzyl-8-(2-chloro-4-(2-(2-methylpiperazin-1-yl)ethoxy)phenyl)-6-(1-methylcyclopropoxy)-9H-purine]	8.70
CC1(Oc2ncnc3c2nc(-c2ccc(OCC4(F)CNC4)cc2Cl)n3Cc2ccccc2)CC1 [Example D19, 9-benzyl-8-(2-chloro-4-((3-fluoroazetidin-3-yl)methoxy)phenyl)-6-(1-methylcyclopropoxy)-9H-purine]	8.60
C#Cc1cc(OCCN2CCN(C)CC2)ccc1-c1nc2c(OC3(C)CC3)ncnc2n1Cc1ccccc1 [Example H9, 9-benzyl-8-(2-ethynyl-4-(2-(4-methylpiperazin-1-yl)ethoxy)phenyl)-6-(1-methylcyclopropoxy)-9H-purine]	8.40
CC1(Oc2ncnc3c2nc(-c2ccc(OCCN4CC5(CNC(=O)C5)C4)cc2Cl)n3Cc2ccccc2)CC1 [Example R8, 2-(2-(4-(9-benzyl-6-(1-methylcyclopropoxy)-9H-purin-8-yl)-3-chlorophenoxy)ethyl)-2,6-diazaspiro[3.4]octan-7-one]	8.60
CC1(Oc2ncnc3c2nc(-c2ccc(OCCCN)cc2Cl)n3Cc2ccccc2)CC1 [Example D6, 3-(4-(9-benzyl-6-(1-methylcyclopropoxy)-9H-purin-8-yl)-3-chlorophenoxy)propan-1-amine]	8.50
CC1(Oc2ncnc3c2nc(-c2ccc(OCCN4CC5CCC(C4)N5)cc2Cl)n3Cc2ccccc2)CC1 [Example R4, 8-(4-(2-(3,8-diazabicyclo[3.2.1]octan-3-yl)ethoxy)-2-chlorophenyl)-9-benzyl-6-(1-methylcyclopropoxy)-9H-purine]	8.50
Cc1cc(OCCN2CCN(C(=O)OC(C)(C)C)CC2)ccc1-c1nc2c(OC(C)C)ncnc2n1Cc1ccccc1 [Example B3, tert-butyl 4-(2-(4-(9-benzyl-6-isopropoxy-9H-purin-8-yl)-3-methyl-phenoxy)ethyl) piperazine-1-carboxylate]	8.30
COc1ccc(Cl)cc1Cn1c(-c2cccc(O[C@H]3CC[C@@H](C(=O)O)CC3)c2Cl)nc2c(OC3(C)CC3)ncnc21 [Example U50, (1s,4s)-4-(2-chloro-3-(9-(5-chloro-2-methoxybenzyl)-6-(1-methylcyclopropoxy)-9H-purin-8-yl)phenoxy)cyclohexane-1-carboxylic acid]	8.10
COc1cc(OCCN2CCN(C)CC2)ccc1-c1nc2c(OC3(C)CC3)ncnc2n1Cc1ccccc1 [Example H3, 9-benzyl-8-(2-methoxy-4-(2-(4-methylpiperazin-1-yl)ethoxy)phenyl)-6-(1-methylcyclopropoxy)-9H-purine]	8.50
Cc1cc(OCCN2CCN(C)CC2)cc(C)c1-c1nc2c(OC3(C)CC3)ncnc2n1Cc1ccccc1 [Example H4, 9-benzyl-8-(2,6-dimethyl-4-(2-(4-methylpiperazin-1-yl)ethoxy)phenyl)-6-(1-methylcyclopropoxy)-9H-purine]	8.70
CC(=O)N1CCN(CCOc2ccc(-c3nc4c(OC5(C)CC5)ncnc4n3Cc3ccccc3)c(Cl)c2)CC1 [Example D5, 1-(4-(2-(4-(9-benzyl-6-(1-methylcyclopropoxy)-9H-purin-8-yl)-3-chlorophenoxy)ethyl)piperazin-1-yl)ethan-1-one]	8.70
CC1(Oc2nccc3c2nc(-c2ccc(OCCN4CCNCC4)cc2Cl)n3Cc2cc(Cl)ccn2)CC1 [Example 16, 2-(2-chloro-4-(2-(piperazin-1-yl)ethoxy)phenyl)-1-((4-chloropyridin-2-yl)methyl)-4-(1-methylcyclopropoxy)-1H-imidazo[4,5-c]pyridine]	8.60
CC1(Oc2ncnc3c2nc(-c2cccc(OCCN4CCNCC4)c2Cl)n3Cc2ccccc2)CC1 [Example D10, 9-benzyl-8-(2-chloro-3-(2-(piperazin-1-yl)ethoxy)phenyl)-6-(1-methylcyclopropoxy)-9H-purine]	8.70

SMILES	pIC50
Cc1ccnc(Cn2c(-c3ccc(OCCO)cc3Cl)nc3c(OC4(C)CC4)ncnc32)c1 [Example 33, 2-(3-Chloro-4-(6-(1-methylcyclopropoxy)-9-((4-methylpyridin-2-yl)methyl)-9H-purin-8-yl)phenoxy)ethan-1-ol]	8.20
Cc1cc(O[C@H]2CCCNC2)ncc1-c1nc2c(OC3(C)CC3)ncnc2n1Cc1ccccc1 [Example G13, (S)-9-benzyl-8-(4-methyl-6-(piperidin-3-yloxy)pyridin-3-yl)-6-(1-methylcyclopropoxy)-9H-purine]	8.50
C[C@@H]1CN(CCOc2ccc(-c3nc4c(OC5(C)CC5)ncnc4n3Cc3ccccc3)c(Cl)c2)C[C@H](C)N1 [Example R9, (cis)-9-benzyl-8-(2-chloro-4-(2-(3,5-dimethylpiperazin-1-yl)ethoxy)phenyl)-6-(1-methylcyclopropoxy)-9H-purine]	8.50
CC1(Oc2ncnc3c2nc(-c2ccc(OCCN4CC[C@@H](O)C4)cc2Cl)n3Cc2ccccc2)CC1 [Example H13, (R)-1-(2-(4-(9-benzyl-6-(1-methylcyclopropoxy)-9H-purin-8-yl)-3-chlorophenoxy)ethyl)pyrrolidin-3-ol]	8.60
C[C@@H]1C(=O)NCCN1CCOc1ccc(-c2nc3c(OC4(C)CC4)ncnc3n2Cc2ccccc2)c(Cl)c1 [Example H22, (R)-4-(2-(4-(9-benzyl-6-(1-methylcyclopropoxy)-9H-purin-8-yl)-3-chlorophenoxy)ethyl)-3-methylpiperazin-2-one]	8.70
CN(C)C(=O)c1ccc(-c2nc3c(OC4(C)CC4)ncnc3n2Cc2ccccc2)c(Cl)c1 [Example N1, 4-(9-benzyl-6-(1-methylcyclopropoxy)-9H-purin-8-yl)-3-chloro-N,N-dimethylbenzamide]	7.70
Cc1c(OCCN2CCNCC2)cncc1-c1nc2c(OC3(C)CC3)ncnc2n1Cc1ccccc1 [Example 22, 9-Benzyl-8-(4-methyl-5-(2-(piperazin-1-yl)ethoxy)pyridin-3-yl)-6-(1-methylcyclopropoxy)-9H-purine]	8.10
CN1CCN(CCOc2ccc(-c3nc4c(OC5(C)CC5)ncnc4n3Cc3cccc(F)c3F)c(Cl)c2)CC1 [Example E3, 8-(2-chloro-4-(2-(4-methylpiperazin-1-yl)ethoxy)phenyl)-9-(2,3-difluorobenzyl)-6-(1-methylcyclopropoxy)-9H-purine]	8.60
CC1(Oc2ncnc3c2nc(-c2ccc(O[C@H]4CC[C@@H](C(=O)O)CC4)cc2Cl)n3Cc2cc(Cl)ccc2F)CC1 [Example U44, (1s,4s)-4-(3-chloro-4-(9-(5-chloro-2-fluorobenzyl)-6-(1-methylcyclopropoxy)-9H-purin-8-yl)phenoxy)cyclohexane-1-carboxylic acid]	8.30
COc1ccnc(Cn2c(-c3ccc(OCCN4CCNCC4)cc3Cl)nc3c(OC4(C)CC4)ncnc32)c1 [Example L5, 8-(2-chloro-4-(2-(piperazin-1-yl)ethoxy)phenyl)-9-((4-methoxypyridin-2-yl)methyl)-6-(1-methylcyclopropoxy)-9H-purine]	8.20
CC1(Oc2ncnc3c2nc(-c2ccc(OCCN4CCCNCC4=O)cc2Cl)n3Cc2ccccc2)CC1 [Example R12, 1-(2-(4-(9-benzyl-6-(1-methylcyclopropoxy)-9H-purin-8-yl)-3-chlorophenoxy)ethyl)-1,4-diazepan-2-one]	8.70
CC1(Oc2ncnc3c2nc(-c2ccc(OCCN4CCNCC4)cc2Cl)n3CCc2ccncc2)CC1 [Example L1, 8-(2-chloro-4-(2-(piperazin-1-yl)ethoxy)phenyl)-6-(1-methylcyclopropoxy)-9-(2-(pyridin-4-yl)ethyl)-9H-purine]	7.60
CC1(Oc2ncnc3c2nc(-c2ccc(N4CCC(N)CC4)cc2Cl)n3Cc2ccccc2)CC1 [Example M2, 1-(4-(9-benzyl-6-(1-methylcyclopropoxy)-9H-purin-8-yl)-3-chlorophenyl)piperidin-4-amine]	8.40
CC1(Oc2ncnc3c2nc(-c2cccc(O[C@H]4C[C@H](C(=O)O)C4)c2Cl)n3Cc2cccc(Cl)c2)CC1 [Example T256, (1r,3r)-3-(2-chloro-3-(9-(3-chlorobenzyl)-6-(1-methylcyclopropoxy)-9H-purin-8-yl)phenoxy)cyclobutane-1-carboxylic acid]	8.50
CC1(Oc2ncnc3c2nc(-c2ccc(OCCN4CCNCC4)cc2Cl)n3Cc2nccs2)CC1 [Example K4, 2-((8-(2-chloro-4-(2-(piperazin-1-yl)ethoxy)phenyl)-6-(1-methylcyclopropoxy)-9H-purin-9-yl)methyl)thiazole]	8.20
Cc1ccnc(Cn2c(-c3ccc(OCCN(C)C)cc3Cl)nc3c(OC4(C)CC4)ncnc32)c1 [Example 25, 2-(3-Chloro-4-(6-(1-methylcyclopropoxy)-9-((4-methylpyridin-2-yl)methyl)-9H-purin-8-yl)phenoxy)-N,N-dimethylethan-1-amine]	8.20

pIC50: −log10 of the molar value.
